Consider one molecule from US20070134793A1, “REDIFFERENTIATION MEDIUM FOR MAKING DEDIFFERENTIATED CHONDROCYTE TO BE REDIFFERENTIATED INTO CHONDROCYTE” (priority 2004, published 2007).

This assay concerns dedifferentiated chondrocyte (P4, derived from human auricular cartilage). As to the kind of experiment: Study of preferable amount of each component in the redifferentiation medium (type II collagen expression). In kind it is cell-based. The note with it: BMP-2 400, 200, 100 ng/mL compared; insulin 5 μg/mL, T3 10^-7 M. As to the method: Preferable ranges of the contents of insulin, BMP-2 and T3 in the medium for redifferentiating the dedifferentiated chondrocyte into the chondrocyte in Example 2 containing insulin, BMP-2 and T3 were elucidated by the following three comparisons.
First, when the contents of BMP-2 were changed to 400 ng/mL, 200 ng/mL and 100 ng/mL, respectively, with a content of insulin of 5 μg/mL and a content of T3 of 10^-7 M, the expression amount of type II collagen was the largest when the content of BMP-2 was 200 ng/mL (FIG. 5).
Second, when the contents of T3 were changed to 10^-6 M, 10^-7 M and 10^-8 M, respectively, with a content of insulin of 5 μg/mL and a content of BMP-2 of 200 ng/mL, the expression amount of type II collagen was the largest when the content of T3 was 10^-7 M (FIG. 6).
Third, the contents of insulin were changed to 50 μg/mL, 5 μg/mL and 0.5 μg/mL, respectively, with a content of BMP-2 of 200 ng/mL and a content of T3 of 10^-7 M, the expression amount of type II collagen was the largest when the content of insulin was 5 μg/mL (FIG. 7).

B1: BMP-2: human recombinant bone morphogenetic protein-2, manufactured by Yamanouchi Pharmaceutical Co. (protein, UniProt P12643 283-396, looked up)
Bone morphogenetic protein 2: QAKHKQRKRLKSSCKRHPLYVDFSDVGWNDWIVAPPGYHAFYCHGECPFPLADHLNSTNHAIVQTLVNSVNSKIPKACCVPTELSAISMLYLDENEKVVLKNYQDMVVEGCGCR
As for B1, the “content of BMP-2 at which the expression amount of type II collagen was the largest” value is recorded as 200 ng/mL.
